Laboratory results as given in PubChem BioAssay AID624296 (National Center for Advancing Translational Sciences (NCATS), 2012).
Screen size: about 350,000 compounds; about 9,900 (2.8%) were called active. Listed are the inconclusive results; actives and inactives stand elsewhere. Calls follow the shape of the dose curve; as a rule, active = well fitted activation curve with a large enough effect; inconclusive = small, poorly fitted or top-dose-only effect; inactive = no such curve, though single readings can be large or run the other way.

test: A quantitative high throughput screen for small molecules that induce DNA re-replication in MCF 10a normal breast cells.; also: nearly all actives have a fitted effect of over 50% in size; details: MCF 10A DNA re-replication, Hoechst nuclear intensity, 48 h
Potency is read from the fitted curve at half-maximal effect.

SMILES | Potency
CS(=O)(=O)c1cc([N+](=O)[O-])c2no[n+]([O-])c2c1 | inconclusive: 25.9 µM
O=P(Nc1nccs1)(Oc1ccccc1)Oc1ccccc1 | inconclusive: 6.51 µM
CN(C)C(=O)c1cc([N+](=O)[O-])cc2c1-c1c(cc([N+](=O)[O-])cc1[N+](=O)[O-])C2=O | inconclusive: 13 µM
Cc1ccc(NCCc2c([N+](=O)[O-])cc([N+](=O)[O-])cc2[N+](=O)[O-])cc1 | inconclusive: 23.1 µM
Cc1ccc(NP(=O)(Oc2ccccc2F)Oc2ccccc2F)nc1 | inconclusive: 23.1 µM
O=[N+]([O-])c1cc([N+](=O)[O-])c(CCNc2ccccc2)c([N+](=O)[O-])c1 | inconclusive: 18.4 µM
CC1CCN(C(=O)Oc2c(Cl)cc(Cl)c3cccnc23)CC1 | inconclusive: 2.31 µM
CC(=O)NC(SC(=S)N(C)C)C(Cl)(Cl)Cl (stereo not drawn) | inconclusive: 3.26 µM
CCc1cc(O)c([N+](=O)[O-])c(C)c1[N+](=O)[O-] | inconclusive: 18.4 µM
N#C/C(=C\c1ccc(N(CCBr)CCBr)cc1)C(N)=O | inconclusive: 9.2 µM
Cc1ccccc1OP(=O)(Nc1ccccn1)Oc1ccccc1C | inconclusive: 23.1 µM
O=c1c2cc([N+](=O)[O-])ccc2[nH]c2c([N+](=O)[O-])cc([N+](=O)[O-])cc12 | inconclusive: 2.91 µM
CN(C)C(=O)Oc1noc2ccccc12 | inconclusive: 0.58 µM
